# Laboratory results reported in patent US8765669B2, “Glycosylated GLP-1 peptide” (Glytech, Inc., priority 2008, dated 2014).
# Sequences of proteins named here, by UniProt entry; tags and fusion partners are left off. A change or cut given only in a name is not applied to a line headed by its entry.
# UniProt P22411: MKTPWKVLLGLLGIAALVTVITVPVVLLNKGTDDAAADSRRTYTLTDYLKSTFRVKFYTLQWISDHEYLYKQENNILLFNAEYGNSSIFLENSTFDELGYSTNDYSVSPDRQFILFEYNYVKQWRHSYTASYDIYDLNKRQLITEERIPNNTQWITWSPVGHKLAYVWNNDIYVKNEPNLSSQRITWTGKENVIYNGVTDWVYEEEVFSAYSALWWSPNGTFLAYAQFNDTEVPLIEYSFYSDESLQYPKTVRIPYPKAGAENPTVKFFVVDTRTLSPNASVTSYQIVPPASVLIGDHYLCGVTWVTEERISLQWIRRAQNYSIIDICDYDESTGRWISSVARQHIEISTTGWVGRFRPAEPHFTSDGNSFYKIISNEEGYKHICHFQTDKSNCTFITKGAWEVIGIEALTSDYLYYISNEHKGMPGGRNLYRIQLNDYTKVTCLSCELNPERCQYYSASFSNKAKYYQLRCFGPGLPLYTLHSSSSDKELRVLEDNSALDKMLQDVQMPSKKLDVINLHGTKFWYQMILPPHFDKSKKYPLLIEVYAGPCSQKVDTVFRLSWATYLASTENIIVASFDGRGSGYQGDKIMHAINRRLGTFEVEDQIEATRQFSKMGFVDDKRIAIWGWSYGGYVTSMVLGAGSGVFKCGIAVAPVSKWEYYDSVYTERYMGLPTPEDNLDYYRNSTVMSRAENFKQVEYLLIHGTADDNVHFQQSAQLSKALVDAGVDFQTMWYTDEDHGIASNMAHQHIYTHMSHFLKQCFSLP
# Biological target: T1, DPP-IV (dipeptidyl peptidase IV from porcine kidney) (Sus scrofa, UniProt P22411)
# T1 construct: dipeptidyl peptidase IV from porcine kidney, product of SIGMA; purchased SIGMA; host or cells: porcine kidney (tissue-derived enzyme)
# Test: Test of resistance to dipeptidyl peptidase IV (DPP-IV)
# Format: in vitro ADME
# Details: half-life (t1/2) in DPP-IV solution at 37° C., GLP-1 of Comparative Example 1 defined as standard (=1)
# Experimental: Each solution mixture was adjusted with 100 mM sodium phosphate buffer to 100 μl in total and allowed to react at 37° C. A 10 μaliquot of the reaction solution was mixed with 15 μl of 10% trifluoroacetic acid prepared in advance in another Eppendorf tube.
substance,measurement,value
26Lys-Asialo Oligosaccharide Chain Asn Linker-Modified Arg34GLP-1 (7-37) Peptide [Example 13],Relative Resistance,5.7
